From patent US20030099674A1 (priority 2001, published 2003)

Experiment: Solubility of paclitaxel in oil emulsions containing soy lecithin
Conditions: 30 mg/g soy lecithin, 100 mg/g oil, 115 mg/g sucrose

CC(=O)O[C@H]1C(=O)[C@@]2(C)[C@H]([C@H](OC(=O)c3ccccc3)[C@]3(O)C[C@H](OC(=O)[C@H](O)[C@@H](NC(=O)c4ccccc4)c4ccccc4)C(C)=C1C3(C)C)[C@]1(OC(C)=O)CO[C@@H]1C[C@@H]2O [paclitaxel]
Solubility at 5° C. (Corn oil emulsion): 15 mg/g of oil
Solubility at 5° C. (Cottonseed oil emulsion): 20 mg/g of oil
Solubility at 25° C. (Cottonseed oil emulsion): 9 mg/g of oil
Solubility at 5° C. (Ethyl oleate emulsion): 6 mg/g of oil
Solubility at 25° C. (Ethyl oleate emulsion): 5 mg/g of oil
Solubility at 5° C. (MCT emulsion): 22 mg/g of oil
Solubility at 25° C. (MCT emulsion): 14 mg/g of oil
Solubility at 5° C. (Safflower oil emulsion): 12 mg/g of oil
Solubility at 25° C. (Safflower oil emulsion): 9 mg/g of oil
Solubility at 5° C. (Sesame oil emulsion): 30 mg/g of oil
Solubility at 25° C. (Sesame oil emulsion): 20 mg/g of oil
Solubility at 25° C. (Soybean oil emulsion): 5 mg/g of oil
Solubility at 5° C. (Vitamin E emulsion): 0 mg/g of oil
Solubility at 25° C. (Vitamin E emulsion): 0 mg/g of oil
